Amino acid sequences for entries named in this document (tags omitted). Residues count along the entry.
UniProt P25774, 115-331: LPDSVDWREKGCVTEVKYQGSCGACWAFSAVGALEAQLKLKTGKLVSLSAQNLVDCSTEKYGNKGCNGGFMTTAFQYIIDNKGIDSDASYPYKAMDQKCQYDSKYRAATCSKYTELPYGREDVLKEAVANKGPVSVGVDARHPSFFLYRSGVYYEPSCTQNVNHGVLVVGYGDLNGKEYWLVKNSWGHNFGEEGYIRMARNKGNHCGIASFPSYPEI

In patent publication US20090099157A1, “TETRAHYDRO-PYRAZOLO-PYRIDINE THIOETHER MODULATORS OF CATHEPSIN S” (priority 2007, published 2009):

biological target: Recombinant human cathepsin S (CatS) (Homo sapiens, UniProt P25774); test: biochemical

Row | Structure (SMILES) | IC50
1 | CC1CCN(CCSc2cc(-c3nn(C[C@@H](O)CN4CCC(C(C)(C)O)CC4)c4c3CN(S(C)(=O)=O)CC4)ccc2C(F)(F)F)CC1 [Example 649, (2S)-1-[4-(1-Hydroxy-1-methylethyl)piperidin-1-yl]-3-{3-[3-{[2-(4-methylpiperidin-1-yl)ethyl]sulfanyl}-4-(trifluoromethyl)phenyl]-5-(methylsulfonyl)-4,5,6,7-tetrahydro-1H-pyrazolo[4,3-c]pyridin-1-yl}propan-2-ol] | 92 nM
2 | CS(=O)(=O)N1CCc2c(c(-c3ccc(C(F)(F)F)c(SCCN4CCC(F)(F)CC4)c3)nn2C[C@@H](O)CN2CCC(c3ccccn3)CC2)C1 [Example 212, (2S)-1-{3-[3-{[2-(4,4-Difluoropiperidin-1-yl)ethyl]sulfanyl}-4-(trifluoromethyl)phenyl]-5-(methylsulfonyl)-4,5,6,7-tetrahydro-1H-pyrazolo[4,3-c]pyridin-1-yl}-3-(4-pyridin-2-ylpiperidin-1-yl)propan-2-ol] | 10 nM
3 | CS(=O)(=O)N1CCc2c(c(-c3ccc(C(F)(F)F)c(SCCN4CCCCC4)c3)nn2CCCN2CCC(N3CCCC3)CC2)C1 [Example 55, 5-Methanesulfonyl-3-[3-(2-piperidin-1-yl-ethylsulfanyl)-4-trifluoromethyl-phenyl]-1-[3-(4-pyrrolidin-1-yl-piperidin-1-yl)-propyl]-4,5,6,7-tetrahydro-1H-pyrazolo[4,3-c]pyridine] | 560 nM
4 | CS(=O)(=O)N1CCc2c(c(-c3ccc(C(F)(F)F)c(SCCN4CCCCC4)c3)nn2CCCN2CCC(N3CCCC3=O)CC2)C1 [Example 5, 1-[1-(3-{5-Methanesulfonyl-3-[3-(2-piperidin-1-yl-ethylsulfanyl)-4-trifluoromethyl-phenyl]-4,5,6,7-tetrahydro-pyrazolo[4,3-c]pyridin-1-yl}-propyl)-piperidin-4-yl]-pyrrolidin-2-one] | 170 nM
5 | CS(=O)(=O)N1CCc2c(c(-c3ccc(C(F)(F)F)c(SCCO)c3)nn2CCCN2CCC(N3CCCC3=O)CC2)C1 [Example 1, 1-[1-(3-{3-[3-(2-Hydroxy-ethylsulfanyl)-4-trifluoromethyl-phenyl]-5-methanesulfonyl-4,5,6,7-tetrahydro-pyrazolo[4,3-c]pyridin-1-yl}-propyl)-piperidin-4-yl]-pyrrolidin-2-one] | 200 nM
6 | CS(=O)(=O)N1CCc2c(c(-c3ccc(C(F)(F)F)c(SCCN4CCOCC4)c3)nn2CC(O)CN2CCC(Oc3ccccn3)CC2)C1 (stereo not shown) [Example 732, 1-[5-(Methylsulfonyl)-3-{3-[(2-morpholin-4-ylethyl)sulfanyl]-4-(trifluoromethyl)phenyl}-4,5,6,7-tetrahydro-1H-pyrazolo[4,3-c]pyridin-1-yl]-3-[4-(pyridin-2-yloxy)piperidin-1-yl]propan-2-ol] | 120 nM
7 | CS(=O)(=O)N1CCc2c(c(-c3ccc(C(F)(F)F)c(SCCN4CCC(F)CC4)c3)nn2C[C@H](O)CN2CCN(c3ccccc3O)CC2)C1 [Example 795, 2-{4-[(2R)-3-{3-[3-{[2-(4-Fluoropiperidin-1-yl)ethyl]sulfanyl}-4-(trifluoromethyl)phenyl]-5-(methylsulfonyl)-4,5,6,7-tetrahydro-1H-pyrazolo[4,3-c]pyridin-1-yl}-2-hydroxypropyl]piperazin-1-yl}phenol] | 30 nM
8 | CS(=O)(=O)N1CCc2c(c(-c3ccc(C(F)(F)F)c(SCCN4CCCCC4)c3)nn2CCCN2CCC(N3CC(O)CC3=O)CC2)C1 (stereo not shown) [Example 679, 4-Hydroxy-1-(1-{3-[5-(methylsulfonyl)-3-{3-[(2-piperidin-1-ylethyl)sulfanyl]-4-(trifluoromethyl)phenyl}-4,5,6,7-tetrahydro-1H-pyrazolo[4,3-c]pyridin-1-yl]propyl}piperidin-4-yl)pyrrolidin-2-one] | 240 nM
9 | O=C(C1CCCN1C(=O)C(F)(F)F)N1CCc2c(c(-c3ccc(C(F)(F)F)c(SCCN4CCC(F)CC4)c3)nn2CC(O)CN2CCCCC2)C1 (stereo not shown) [Example 856, 2,2,2-Trifluoro-1-{2-[3-{3-[2-(4-fluoro-piperidin-1-yl)-ethylsulfanyl]-4-trifluoromethyl-phenyl}-1-(2-hydroxy-3-piperidin-1-yl-propyl)-1,4,6,7-tetrahydro-pyrazolo[4,3-c]pyridine-5-carbonyl]-pyrrolidin-1-yl}-ethanone] | 1080 nM
10 | O=C1CCCN1C1CCN(CC(O)Cn2nc(-c3ccc(C(F)(F)F)c(SCCN4CCCC(O)C4)c3)c3c2CCNC3)CC1 (stereo not shown) [Example 419, 1-[1-(2-Hydroxy-3-{3-[3-{[2-(3-hydroxypiperidin-1-yl)ethyl]sulfanyl}-4-(trifluoromethyl)phenyl]-4,5,6,7-tetrahydro-1H-pyrazolo[4,3-c]pyridin-1-yl}propyl)piperidin-4-yl]pyrrolidin-2-one] | 2530 nM
11 | CC(=O)N1CCN(CCSc2cc(-c3nn(CC(O)CN4CCC(C(=O)N5CCCC5)CC4)c4c3CN(S(C)(=O)=O)CC4)ccc2C(F)(F)F)CC1 (stereo not shown) [Example 860, 1-{3-[3-{[2-(4-Acetylpiperazin-1-yl)ethyl]sulfanyl}-4-(trifluoromethyl)phenyl]-5-(methylsulfonyl)-4,5,6,7-tetrahydro-1H-pyrazolo[4,3-c]pyridin-1-yl}-3-[4-(pyrrolidin-1-ylcarbonyl)piperidin-1-yl]propan-2-ol] | 370 nM
12 | CSCC(=O)N1CCc2c(c(-c3ccc(C(F)(F)F)c(SCCN4CCCC4)c3)nn2CC(O)CN2CCC(NC(=O)CO)CC2)C1 (stereo not shown) [Example 638, 2-Hydroxy-N-{1-[2-hydroxy-3-(5-[(methylsulfanyl)acetyl]-3-{3-[(2-pyrrolidin-1-ylethyl)sulfanyl]-4-(trifluoromethyl)phenyl}-4,5,6,7-tetrahydro-1H-pyrazolo[4,3-c]pyridin-1-yl)propyl]piperidin-4-yl}acetamide] | 320 nM
13 | O=C(CO)N1CCc2c(c(-c3ccc(C(F)(F)F)c(SCCN4CCCCC4)c3)nn2CC(O)CN2CCC(N3CCCC3=O)CC2)C1 (stereo not shown) [Example 240, 1-(1-{2-Hydroxy-3-[5-(hydroxyacetyl)-3-{3-[(2-piperidin-1-ylethyl)sulfanyl]-4-(trifluoromethyl)phenyl}-4,5,6,7-tetrahydro-1H-pyrazolo[4,3-c]pyridin-1-yl]propyl}piperidin-4-yl)pyrrolidin-2-one] | 40 nM
14 | OC(CN1CCN(c2ccccc2F)CC1)Cn1nc(-c2ccc(C(F)(F)F)c(SCCN3CCCCC3)c2)c2c1CCNC2 (stereo not shown) [Example 401, 1-[4-(2-Fluorophenyl)piperazin-1-yl]-3-(3-{3-[(2-piperidin-1-ylethyl)sulfanyl]-4-(trifluoromethyl)phenyl}-4,5,6,7-tetrahydro-1H-pyrazolo[4,3-c]pyridin-1-yl)propan-2-ol] | 500 nM
15 | CC(C)(C)C1CCN(C[C@H](O)Cn2nc(-c3ccc(C(F)(F)F)c(SCCN4CCC(F)(F)CC4)c3)c3c2CCN(S(C)(=O)=O)C3)CC1 [Example 213, (2S)-1-{3-[3-{[2-(4,4-Difluoropiperidin-1-yl)ethyl]sulfanyl}-4-(trifluoromethyl)phenyl]-5-(methylsulfonyl)-4,5,6,7-tetrahydro-1H-pyrazolo[4,3-c]pyridin-1-yl}-3-[4-(1,1-dimethylethyl)piperidin-1-yl]propan-2-ol] | 30 nM
16 | CN(C)c1ccc2c(n1)n(C1CCN(CCCn3nc(-c4ccc(C(F)(F)F)c(SCCN5CCCCC5)c4)c4c3CCN(S(C)(=O)=O)C4)CC1)c(=O)n2C [Example 149, 5-(Dimethylamino)-1-methyl-3-(1-{3-[5-(methylsulfonyl)-3-{3-[(2-piperidin-1-ylethyl)sulfanyl]-4-(trifluoromethyl)phenyl}-4,5,6,7-tetrahydro-1H-pyrazolo[4,3-c]pyridin-1-yl]propyl}piperidin-4-yl)-1,3-dihydro-2H-imidazo[4,5-b]pyridin-2-one] | 10 nM
17 | CS(=O)(=O)N1CCc2c(c(-c3ccc(C(F)(F)F)c(SCCNC(=O)c4ccc(O)cc4)c3)nn2CC(O)CN2CCC(N3CCCC3=O)CC2)C1 (stereo not shown) [Example 119, 4-Hydroxy-N-{2-[5-(1-{2-hydroxy-3-[4-(2-oxo-pyrrolidin-1-yl)-piperidin-1-yl]-propyl}-5-methanesulfonyl-4,5,6,7-tetrahydro-1H-pyrazolo[4,3-c]pyridin-3-yl)-2-trifluoromethyl-phenylsulfanyl]-ethyl}-benzamide] | 390 nM
18 | CS(=O)(=O)N1CCc2c(c(-c3ccc(C(F)(F)F)c(SCCNC4CCCCC4)c3)nn2CCCN2CCCCC2)C1 [Example 340, N-[2-({5-[5-(Methylsulfonyl)-1-(3-piperidin-1-ylpropyl)-4,5,6,7-tetrahydro-1H-pyrazolo[4,3-c]pyridin-3-yl]-2-(trifluoromethyl)phenyl}sulfanyl)ethyl]cyclohexanamine] | 360 nM
19 | CS(=O)(=O)N1CCc2c(c(-c3ccc(C(F)(F)F)c(SCCN4CCOCC4)c3)nn2CC(O)CN2CCC(n3cn[nH]c3=O)CC2)C1 (stereo not shown) [Example 684, 4-(1-{2-Hydroxy-3-[5-(methylsulfonyl)-3-{3-[(2-morpholin-4-ylethyl)sulfanyl]-4-(trifluoromethyl)phenyl}-4,5,6,7-tetrahydro-1H-pyrazolo[4,3-c]pyridin-1-yl]propyl}piperidin-4-yl)-2,4-dihydro-3H-1,2,4-triazol-3-one] | 170 nM
20 | CS(=O)(=O)N1CCc2c(c(-c3ccc(C(F)(F)F)c(SCC(=O)N4CCOCC4)c3)nn2CC(O)CN2CCC(N3CC(O)CC3=O)CC2)C1 (stereo not shown) [Example 814, 4-Hydroxy-1-(1-{2-hydroxy-3-[5-(methylsulfonyl)-3-{3-[(2-morpholin-4-yl-2-oxoethyl)sulfanyl]-4-(trifluoromethyl)phenyl}-4,5,6,7-tetrahydro-1H-pyrazolo[4,3-c]pyridin-1-yl]propyl}piperidin-4-yl)pyrrolidin-2-one] | 30 nM
21 | CS(=O)(=O)N1CCc2c(c(-c3ccc(C(F)(F)F)c(SCCN4CCCC4)c3)nn2CC(O)CN2CCCCC2)C1 (stereo not shown) [Example 184, 1-[5-(Methylsulfonyl)-3-{3-[(2-pyrrolidin-1-ylethyl)sulfanyl]-4-(trifluoromethyl)phenyl}-4,5,6,7-tetrahydro-1H-pyrazolo[4,3-c]pyridin-1-yl]-3-piperidin-1-ylpropan-2-ol] | 710 nM
22 | OC1CCCN(CCSc2cc(-c3nn(CC(O)CN4CCC(O)(c5ccccn5)CC4)c4c3CNCC4)ccc2C(F)(F)F)C1 (stereo not shown) [Example 462, 1-(2-{[5-{1-[2-Hydroxy-3-(4-hydroxy-4-pyridin-2-ylpiperidin-1-yl)propyl]-4,5,6,7-tetrahydro-1H-pyrazolo[4,3-c]pyridin-3-yl}-2-(trifluoromethyl)phenyl]sulfanyl}ethyl)piperidin-3-ol] | 2780 nM
